Results on one compound are retold here after ChEMBL document CHEMBL5506001 (J Med Chem, 2024).

The structures appear in SMILES notation.

The species entered for test [1] is Homo sapiens. To be noted: filed as activator.
Test [2] is filed under the species Homo sapiens. The note with it: filed as activator. The source holds these as a separate data set.

Consider `Cc1nc2cc(OCCN3CCOCC3)c(S(=O)(=O)Nc3ccc(N4C[C@H](C)C[C@@H](C)C4)nc3)cc2c(=O)[nH]1`, for which the deltaS in test [1] is -12 cal/mol.K. Further, the deltaH in test [2] is -10.3 kcal/mol.
